Results published in patent US8895613B2 (priority 2013, dated 2014).

Tests used:
Assay type in all cases: biochemical
[1] = target: neuraminidase of influenza virus A/California/04/09 (Influenza A virus, UniProt C3W5S3); settings: read-out: neuraminidase activity IC50
[2] = target: neuraminidase of influenza virus A/California/07/09 (H1N1) (Influenza A virus, UniProt C3W6G3); settings: read-out: IC50, nM (number of experiments)
[3] = target: neuraminidase of influenza virus B/Brisbane/60/2008 (Influenza B virus, UniProt C0LT34); settings: read-out: IC50, nM (number of experiments)

## CCC(CC)O[C@@H]1C=C(C(=O)O)C[C@H](N)[C@H]1NC(C)=O [A2, (3R,4R,5S)-5-amino-4-acetamido-3-(pentan-3-yloxy)cyclohex-1-enecarboxylic acid, reference compound]
[1]
  IC50: 0.8 nM
[2]
  IC50: 0.86 nM
[3]
  IC50: 25.4 nM
